AlphaSeq binding of Ab-14 light chain variants to a spike HR2 peptide

The measurements come from Engelhart et al. 2022 (doi:10.1038/s41597-022-01779-4) through the FLAb antibody collection.

Binding partner: SARS-CoV-2 spike HR2 peptide, sequence PDVDLGDISGINAS.

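In library AAYL50, one, two or three CDR residues were substituted; doubles and triples were drawn at random. AlphaSeq pools MATa yeast showing the antibodies with MATalpha yeast showing the peptide. After mating in shaken culture at 30 °C for 16 h, diploids were selected and their barcode pairs sequenced. Read counts were normalised to the haploid input and turned into Kd by a linear fit to BCL2-family pairs of known affinity, for each replicate. Each pool was mated in three replicate cultures.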

The variants keep the heavy chain, the linker and the frameworks of Ab-14 (scFv order VH, a 15-residue (Gly4Ser)3 linker, VL).
VH: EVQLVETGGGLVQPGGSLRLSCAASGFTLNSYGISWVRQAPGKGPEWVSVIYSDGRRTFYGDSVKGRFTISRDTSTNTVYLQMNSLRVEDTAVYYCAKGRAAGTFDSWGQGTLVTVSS
VL: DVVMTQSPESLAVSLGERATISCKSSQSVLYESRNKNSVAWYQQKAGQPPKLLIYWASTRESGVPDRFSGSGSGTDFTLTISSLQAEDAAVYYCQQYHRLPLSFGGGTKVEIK

The parent's light chain CDRs are KSSQSVLYESRNKNSVA, WASTRES, QQYHRLPLS; each variant's own CDRs replace them letter for letter. Affinities are written as log10 Kd with Kd in nM; a lower number is a better binder. Where no diploid with the target was found in that replicate, the entry reads "n.d.": below detection, most likely a poor binder, though not proof of it. For reference, the parent read 0.65 as the reference entry and 1.68 as a member of this library. Three control strains display no target. For library AAYL50, 18% of the pairings with them gave a signal, with a median of 4.19 and one signal in twenty below 2.99, so weak values seen in few replicates may be background. The control count says in how many pairings with the empty strains this scFv gave a signal, with their mean in brackets.

| # | CDR-L1 | CDR-L2 | CDR-L3 | log10 Kd (nM) by replicate | empty controls |
|---|---|---|---|---|---|
| 1 | KSSQEVLYESRNKNSVA | WAKTRES | QQYHRLPLD | n.d. / n.d. / n.d. | 1 of 9 (4.02) |
| 2 | KSSQSVLYWPRNKNSVA | WASTRES | GQYHRLPLS | n.d. / n.d. / n.d. | 0 of 9 |
| 3 | KSHQSYLYESRNKNSVA | WASFRES | QQYHRLPLS | 1.01 / 1.80 / n.d. | 0 of 9 |
| 4 | CPSQSVLYESRNKNSEA | WASTRES | QQYHRLPLS | n.d. / n.d. / n.d. | 0 of 9 |
| 5 | KSYQSVLYESRNKNSVA | WASTRES | QQCHLLPLS | n.d. / n.d. / n.d. | 1 of 9 (1.73) |
| 6 | KSSQSVLYESRNKMSVA | WASTRES | QQYKRLPHS | n.d. / n.d. / n.d. | 0 of 9 |
| 7 | KSSQSVLYESRLKNSVA | WASTRES | QQNHRLPLE | 3.16 / n.d. / n.d. | 0 of 9 |
| 8 | KSAQSVLYESRNKASVA | WASTRFS | QQYHRLPLS | 1.39 / 1.52 / 1.50 | 5 of 9 (3.66) |
| 9 | KSSQSVLYESRNPNSVA | WASTLES | QQYHRLMLS | 3.38 / 3.10 / 3.29 | 6 of 9 (4.15) |
| 10 | KSSQSYLYESRNKNSVA | WADTRES | QQYHRTPLS | n.d. / n.d. / n.d. | 0 of 9 |
| 11 | KSSKSVLYESRNKNQVA | WASTGES | QQYHRLPLS | n.d. / n.d. / n.d. | 0 of 9 |
| 12 | KSSQSVWYESRNKNSVA | WAATRES | EQYHRLPLS | n.d. / n.d. / n.d. | 0 of 9 |
| 13 | KSSQSFLYESRNKNSVA | WASTRES | QQYYRLPLS | 0.68 / 0.93 / 0.50 | 1 of 9 (3.01) |
| 14 | KSSQSVLYESRNHNSVA | FASTRVS | QQYHRLPLS | 0.23 / 0.44 / 0.25 | 4 of 9 (4.40) |
| 15 | KSSKSVLYESRDKNSVA | WASTRES | QQYHRWPLS | n.d. / n.d. / n.d. | 0 of 9 |
| 16 | KSSQTVLYESRNKKSVA | AASTRES | QQYHRLPLS | n.d. / 3.71 / n.d. | 5 of 9 (4.44) |
| 17 | KSSQSVFYESRNKMSVA | WASERES | QQYHRLPLS | n.d. / n.d. / n.d. | 0 of 9 |
| 18 | PSSQSVLYEMRNKNSVA | WASMRES | QQYHRLPLS | n.d. / n.d. / n.d. | 0 of 9 |
| 19 | KSSQSVPSESRNKNSVA | WASTRES | QNYHRLPLS | 1.18 / 1.42 / 1.42 | 0 of 9 |
| 20 | KSSQSVLYRTRNKNSVA | WASTREI | QQYHRLPLS | 2.16 / 2.14 / 2.13 | 1 of 9 (3.47) |
| 21 | KSSQSVLYESRNKNSVA | HPSTRSS | QQYHRLPLS | n.d. / 4.41 / 4.53 | 3 of 9 (4.29) |
| 22 | KSSQSVLYESRNKNSVA | WASTRES | TWGHRLPLS | 3.06 / 3.30 / 2.61 | 3 of 9 (3.22) |
| 23 | KSSQSVLYESRNKNSMA | WAWTRES | QQYHRLPLS | 3.02 / 2.88 / 3.83 | 0 of 9 |
| 24 | KSSQSVLYESRNDNSVW | WAETRES | QQYHRLPLS | 3.82 / n.d. / n.d. | 1 of 9 (4.52) |
| 25 | KSSCSVLYESRNKYSVA | WADTRES | QQYHRLPLS | 0.90 / 1.00 / 0.92 | 2 of 9 (4.76) |
| 26 | KWSISVLYESRNKNSVG | WASTRES | QQYHRLPLS | n.d. / 3.69 / 5.55 | 0 of 9 |
| 27 | KSKQYVEYESRNKNSVA | WASTRES | QQYHRLPLS | 1.18 / 1.24 / 1.11 | 1 of 9 (4.80) |
| 28 | KSKQSVAYESRNKNSVA | WASTRES | QQYHRLPLS | 0.93 / 1.24 / 0.93 | 1 of 9 (4.17) |
| 29 | KSSQSVLYCSRNKNSVA | HASDRES | QQYHRLPLS | 1.35 / 1.80 / 1.50 | 0 of 9 |
| 30 | KSSQSVLYESRNKNSVA | WANTRES | QQYHNLPLS | 1.50 / 1.55 / 1.45 | 0 of 9 |
| 31 | KSSQSVLYESRNKNSVA | WMSTRES | QQYKRLPLK | 1.26 / 1.61 / 1.68 | 0 of 9 |
| 32 | KFSQSVLYESRNKNSVA | WASTRES | QQYHRLPLS | 0.36 / 0.62 / 0.61 | 0 of 9 |
| 33 | KSSNSPLYESRNKNSVA | WASTRES | QQYHRLPGS | 2.56 / 2.72 / 2.79 | 6 of 9 (4.02) |
| 34 | KSSQSVLYESRNKNSVA | WMSDRES | QQYHRLFLS | 2.84 / 2.59 / 3.28 | 3 of 9 (4.85) |
| 35 | KSSQSVLYESRNKITVA | WASTRES | QQYHVLPLS | n.d. / n.d. / n.d. | 1 of 9 (3.45) |
| 36 | KSSQKVLYESRNKNSVA | WASTRES | MQYHRLPNS | n.d. / n.d. / n.d. | 0 of 9 |
| 37 | KSSQPVLYESRNKNSVA | CASTRES | QQAHRLPLS | 2.03 / 1.35 / 1.40 | 0 of 9 |
| 38 | KSSQSAEYESRNKNSVA | WASTRES | QQYHELPLS | 1.57 / 1.46 / 1.58 | 0 of 9 |
| 39 | KSSQSVLYESRNKNSVL | WASTRES | QQYHRLQLV | n.d. / n.d. / n.d. | 0 of 9 |
| 40 | KSSQSVLYESRNKNGVA | WASMRES | QQDHRLPLS | 1.96 / 2.03 / 2.26 | 2 of 9 (3.35) |
| 41 | LSSQRVLYESRNKNSVA | WASTRES | QQYHRLPKS | 2.12 / 1.91 / 1.99 | 3 of 9 (4.23) |
| 42 | KSSQSNLYESRNKNSVA | QASTRES | QQYHRLPTS | n.d. / n.d. / 5.60 | 1 of 9 (3.55) |
| 43 | KSMQSVLYDSRNKNSVA | WASTRES | QQYSRLPLS | 0.49 / 0.66 / 0.49 | 2 of 9 (4.57) |
| 44 | KSSQSVLYEMRNKKSVA | WASTRES | QQYHRLPLS | 0.93 / 1.96 / 2.64 | 0 of 9 |
| 45 | ISSQSVLGESRNKNSVA | WASTRER | QQYHRLPLS | 0.11 / 1.12 / 0.87 | 0 of 9 |
| 46 | HSSQSVSYESRNKNSVA | WASTRES | QQGHRLPLS | n.d. / 3.07 / n.d. | 3 of 9 (4.31) |
| 47 | KSSQSVLYESRNKNSVA | WASTRED | EQYHRMPLS | 0.96 / 1.27 / 1.49 | 0 of 9 |
| 48 | KGSQDVLYESRNKNSVA | WASTRES | QQYHILPLS | n.d. / n.d. / n.d. | 0 of 9 |

Picked from the list: the 6 lowest averages where every replicate gave a value.

| CDR-L1 | CDR-L2 | CDR-L3 | log10 Kd (nM) by replicate | empty controls |
|---|---|---|---|---|
| KSSQSVLYESRNHNSVA | FASTRVS | QQYHRLPLS | 0.23 / 0.44 / 0.25 | 4 of 9 (4.40) |
| KFSQSVLYESRNKNSVA | WASTRES | QQYHRLPLS | 0.36 / 0.62 / 0.61 | 0 of 9 |
| KSMQSVLYDSRNKNSVA | WASTRES | QQYSRLPLS | 0.49 / 0.66 / 0.49 | 2 of 9 (4.57) |
| ISSQSVLGESRNKNSVA | WASTRER | QQYHRLPLS | 0.11 / 1.12 / 0.87 | 0 of 9 |
| KSSQSFLYESRNKNSVA | WASTRES | QQYYRLPLS | 0.68 / 0.93 / 0.50 | 1 of 9 (3.01) |
| KSSCSVLYESRNKYSVA | WADTRES | QQYHRLPLS | 0.90 / 1.00 / 0.92 | 2 of 9 (4.76) |